According to ChEMBL document CHEMBL1671744 (Antimicrob Agents Chemother, 2010):
≈ marks a conversion by molar mass, not a printed value.

What was measured:
Escherichia coli = assay: Antimicrobial activity against Escherichia coli; format: functional
Staphylococcus aureus = assay: Antimicrobial activity against Staphylococcus aureus; format: functional

SMILES: CC[C@H](C)[C@H](NC(=O)CN)C(=O)NCC(=O)N[C@@H](C)C(=O)N[C@H](C(=O)N[C@@H](CC(C)C)C(=O)N[C@@H](CCCCN)C(=O)N[C@H](C(=O)N[C@@H](CC(C)C)C(=O)N[C@H](C(=O)N[C@H](C(=O)NCC(=O)N[C@@H](CC(C)C)C(=O)N1CCC[C@H]1C(=O)N[C@@H](C)C(=O)N[C@@H](CC(C)C)C(=O)N[C@H](C(=O)N[C@@H](CO)C(=O)N[C@@H](Cc1c[nH]c2ccccc12)C(=O)N[C@H](C(=O)N[C@@H](CCCCN)C(=O)N[C@@H](CCCNC(=N)N)C(=O)N[C@@H](CCCCN)C(=O)N[C@@H](CCCNC(=N)N)C(=O)N[C@@H](CCC(N)=O)C(=O)N[C@@H](CCC(N)=O)C(N)=O)[C@@H](C)CC)[C@@H](C)CC)[C@@H](C)O)[C@@H](C)O)C(C)C)C(C)C [MELITTIN]
- MIC (Escherichia coli): 2 µM (≈ 5.69 µg/mL)
- MIC (Staphylococcus aureus): 0.5 µM (≈ 1.42 µg/mL)
